Measurements as given in US7759499B2, “Compounds as inhibitors of hepatitis C virus NS3 serine protease” (Schering Corporation, priority 2004, dated 2010).

Protein sequences, listed by entry. Tags and fused reporters are not part of them. Residues count along the entry.
UniProt P27958, 1027-1657: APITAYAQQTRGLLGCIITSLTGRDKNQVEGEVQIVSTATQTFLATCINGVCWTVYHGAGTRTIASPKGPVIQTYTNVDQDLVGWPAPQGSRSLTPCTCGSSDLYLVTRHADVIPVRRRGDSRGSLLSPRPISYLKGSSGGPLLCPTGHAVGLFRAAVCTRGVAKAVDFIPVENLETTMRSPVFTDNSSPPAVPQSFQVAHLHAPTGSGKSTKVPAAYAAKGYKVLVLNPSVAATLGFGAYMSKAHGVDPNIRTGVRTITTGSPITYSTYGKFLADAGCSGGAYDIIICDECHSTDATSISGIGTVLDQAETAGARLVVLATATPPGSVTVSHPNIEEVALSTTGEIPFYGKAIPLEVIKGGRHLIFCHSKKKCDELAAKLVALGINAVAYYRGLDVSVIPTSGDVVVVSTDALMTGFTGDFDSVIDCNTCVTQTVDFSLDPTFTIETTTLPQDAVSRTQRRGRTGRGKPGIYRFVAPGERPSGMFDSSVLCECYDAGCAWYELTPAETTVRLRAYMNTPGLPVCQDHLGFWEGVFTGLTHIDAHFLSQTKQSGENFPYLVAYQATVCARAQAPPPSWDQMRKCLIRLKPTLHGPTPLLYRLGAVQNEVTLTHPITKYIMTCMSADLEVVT
UniProt P27958, 1658-1711: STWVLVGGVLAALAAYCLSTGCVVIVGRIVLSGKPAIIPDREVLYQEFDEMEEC

Target: Recombinant heterodimeric HCV NS3/NS4A protease (strain 1a) (Hepatitis C virus genotype 1a, UniProt P27958)
Experiment: Spectrophotometric assay for HCV protease inhibitory activity
Type: biochemical
Details: Table 5, range

SMILES | Ki [nM]
C#CCCC(NC(=O)[C@@H]1[C@@H]2[C@H](CN1C(=O)[C@@H](NC(=O)N[C@H](CN(C)C(=O)OC(C)(C)C)C(C)(C)C)C(C)(C)C)C2(C)C)C(=O)C(N)=O (stereo partly drawn) [Compound 14053] | > 250
C=CCNC(=O)C(=O)C(CCCC)NC(=O)[C@@H]1[C@@H]2[C@H](CN1C(=O)[C@@H](NC(=O)N[C@H](CN(C)C(=O)OC(C)(C)C)C1CCCCC1)C1CCCCC1)C2(C)C (stereo partly drawn) [Compound 14054] | > 250
C=CCNC(=O)C(=O)C(CC1CC1)NC(=O)[C@@H]1[C@@H]2[C@H](CN1C(=O)[C@@H](NC(=O)N[C@H](CN(C)C(=O)OC(C)(C)C)C1CCCCC1)C1CCCCC1)C2(C)C (stereo partly drawn) [Compound 14055] | > 250
CC(C)[C@H](CNC(=O)OCc1ccccc1)NC(=O)N[C@H](C(=O)N1C[C@H]2[C@@H]([C@H]1C(=O)NC(CC1CC1)C(=O)C(N)=O)C2(C)C)C(C)(C)C (stereo partly drawn) [Compound 14056] | ≤ 75
CC(C)[C@@H](CNC(=O)NC1CCCCC1)NC(=O)N[C@H](C(=O)N1C[C@H]2[C@@H]([C@H]1C(=O)NC(CC1CCC1)C(=O)C(N)=O)C2(C)C)C(C)(C)C (stereo partly drawn) [Compound 14057] | ≤ 75
CC(C)NC(=O)NC[C@@H](NC(=O)N[C@H](C(=O)N1C[C@H]2[C@@H]([C@H]1C(=O)NC(CC1CCC1)C(=O)C(N)=O)C2(C)C)C(C)(C)C)C(C)C (stereo partly drawn) [Compound 14058] | ≤ 75
CC(C)[C@@H](CNC(=O)NC(C)(C)C)NC(=O)N[C@H](C(=O)N1C[C@H]2[C@@H]([C@H]1C(=O)NC(CC1CCC1)C(=O)C(N)=O)C2(C)C)C(C)(C)C (stereo partly drawn) [Compound 14059] | ≤ 75

Same assay, conditions: Table 6

SMILES | Ki [nM]
CN(C[C@@H](NC(=O)N[C@H](C(=O)N1C[C@H]2[C@@H]([C@H]1C(=O)NC(CC1CCC1)C(=O)C(N)=O)C2(C)C)C(C)(C)C)C(C)(C)C)S(=O)(=O)c1ccccc1 (stereo partly drawn) [drawing 51] | 5
CN(C[C@@H](NC(=O)N[C@H](C(=O)N1C[C@H]2[C@@H]([C@H]1C(=O)NC(CC1CCC1)C(=O)C(N)=O)C2(C)C)C(C)(C)C)C(C)(C)C)S(=O)(=O)c1cccs1 (stereo partly drawn) [drawing 52] | 3.7
C=CCNC(=O)C(=O)C(CC1CC1)NC(=O)[C@@H]1[C@@H]2[C@H](CN1C(=O)[C@@H](NC(=O)N[C@H](CN(C)S(=O)(=O)c1cccs1)C(C)(C)C)C(C)(C)C)C2(C)C (stereo partly drawn) [drawing 53] | 30
C=CCNC(=O)C(=O)C(CC1CC1)NC(=O)[C@@H]1[C@@H]2[C@H](CN1C(=O)[C@@H](NC(=O)N[C@H](CN(C)S(C)(=O)=O)C(C)(C)C)C(C)(C)C)C2(C)C (stereo partly drawn) [drawing 54] | 19
C=CCNC(=O)C(=O)C(CCC(F)(F)F)NC(=O)[C@@H]1[C@@H]2[C@H](CN1C(=O)[C@@H](NC(=O)N[C@H](CN(C)S(C)(=O)=O)C(C)(C)C)C(C)(C)C)C2(C)C (stereo partly drawn) [drawing 55] | 9
C=CCNC(=O)C(=O)C(CCC)NC(=O)[C@@H]1[C@@H]2[C@H](CN1C(=O)[C@@H](NC(=O)N[C@H](CN(C)S(=O)(=O)N1CCCCC1)C(C)(C)C)C(C)(C)C)C2(C)C (stereo partly drawn) [drawing 56] | 15
C=CCNC(=O)C(=O)C(CCC)NC(=O)[C@@H]1[C@@H]2[C@H](CN1C(=O)[C@@H](NC(=O)N[C@H](CN(C)S(=O)(=O)c1ccccn1)C(C)(C)C)C(C)(C)C)C2(C)C (stereo partly drawn) [drawing 57] | 14
C=CCNC(=O)C(=O)C(CCCC)NC(=O)[C@@H]1[C@@H]2[C@H](CN1C(=O)[C@@H](NC(=O)N[C@H](CN(C)S(=O)(=O)N(C)C)C(C)(C)C)C(C)(C)C)C2(C)C (stereo partly drawn) [drawing 58] | 11
C#CCCC(NC(=O)[C@@H]1[C@@H]2[C@H](CN1C(=O)[C@@H](NC(=O)N[C@H](CN(C)S(=O)(=O)N(C)C)C(C)(C)C)C(C)(C)C)C2(C)C)C(=O)C(=O)NCC=C (stereo partly drawn) [drawing 59] | 2.6
CCN(C[C@@H](NC(=O)N[C@H](C(=O)N1C[C@H]2[C@@H]([C@H]1C(=O)NC(CC1CCC1)C(=O)C(N)=O)C2(C)C)C(C)(C)C)C(C)(C)C)S(=O)(=O)c1cccs1 (stereo partly drawn) [drawing 60] | 9
C=CCNC(=O)C(=O)C(CC1CC1)NC(=O)[C@@H]1[C@@H]2[C@H](CN1C(=O)[C@@H](NC(=O)N[C@H](CN(C)S(=O)(=O)N(C)C)C(C)(C)C)C1Cc3ccccc3C1)C2(C)C (stereo partly drawn) [drawing 61] | 12
C=CCNC(=O)C(=O)C(CCCC)NC(=O)[C@@H]1[C@@H]2[C@H](CN1C(=O)[C@@H](NC(=O)N[C@H](CN(C)S(=O)(=O)CC)C(C)(C)C)C1Cc3ccccc3C1)C2(C)C (stereo partly drawn) [drawing 62] | 5.8
C=CCNC(=O)C(=O)C(CCC)NC(=O)[C@@H]1[C@@H]2[C@H](CN1C(=O)[C@@H](NC(=O)N[C@H](CN(C)S(=O)(=O)CC)C(C)(C)C)C1(C)CCCCC1)C2(C)C (stereo partly drawn) [drawing 63] | 10
CN(C[C@@H](NC(=O)N[C@H](C(=O)N1C[C@H]2[C@@H]([C@H]1C(=O)NC(CC1CCC1)C(=O)C(N)=O)C2(C)C)C(C)(C)C)C(C)(C)C)C(=O)C(F)(F)F (stereo partly drawn) [drawing 64] | 2
